Literature values as cited in patent US7897758B2, “Activators for oligonucleotide and phosphoramidite synthesis” (dated 2011).
This is a selection: effects in other tests are not listed, and their absence says nothing.

Details: background statement

1H-tetrazole
classification as explosive in Germany: Category A explosive
